Earlier results on 1 compound are cited in article PMC9504419, “Multipotent Cholinesterase Inhibitors for the Treatment of Alzheimer’s Disease: Synthesis, Biological Analysis and Molecular Docking Study of Benzimidazole-Based Thiazole Derivatives” (Molecules, 2022).

By UniProt entry, the sequences of proteins in these tests, tags left out. Residues count along the entry.
UniProt P22303, 32-614: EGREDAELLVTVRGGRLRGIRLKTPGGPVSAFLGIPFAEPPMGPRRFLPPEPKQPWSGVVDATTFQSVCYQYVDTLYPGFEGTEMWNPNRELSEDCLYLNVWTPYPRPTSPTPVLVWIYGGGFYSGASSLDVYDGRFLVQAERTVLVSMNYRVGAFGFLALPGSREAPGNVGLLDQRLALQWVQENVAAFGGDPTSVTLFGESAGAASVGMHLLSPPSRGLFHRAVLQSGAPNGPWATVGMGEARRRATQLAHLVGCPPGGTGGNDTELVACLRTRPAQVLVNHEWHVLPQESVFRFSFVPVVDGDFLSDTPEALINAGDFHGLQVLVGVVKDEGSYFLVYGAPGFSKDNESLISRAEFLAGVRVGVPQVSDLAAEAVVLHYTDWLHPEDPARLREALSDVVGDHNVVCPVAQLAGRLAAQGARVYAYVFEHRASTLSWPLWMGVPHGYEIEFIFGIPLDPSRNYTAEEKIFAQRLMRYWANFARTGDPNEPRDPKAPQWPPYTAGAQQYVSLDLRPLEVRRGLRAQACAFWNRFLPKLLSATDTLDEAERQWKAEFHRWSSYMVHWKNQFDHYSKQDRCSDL

This series addresses AChE (Homo sapiens, UniProt P22303). Further details: method as in PMID 31699396. As to conditions: read-out: inhibitory efficacy (IC50) against the AChE activity; under ideal test circumstances; cited from earlier work.

As for `O=C(CCC1CCN(Cc2ccccc2)CC1)c1ccc2c(c1)NCCCC2` [TAK-147], the IC50 is 12 nM.
